{"sequences": {"note": "The chains behind the UniProt entries cited, without tags or fusion partners. Where a name states a change or a piece, a line headed by the entry shows the natural chain unless it says otherwise.", "UniProt P00519, whole entry, looked up": "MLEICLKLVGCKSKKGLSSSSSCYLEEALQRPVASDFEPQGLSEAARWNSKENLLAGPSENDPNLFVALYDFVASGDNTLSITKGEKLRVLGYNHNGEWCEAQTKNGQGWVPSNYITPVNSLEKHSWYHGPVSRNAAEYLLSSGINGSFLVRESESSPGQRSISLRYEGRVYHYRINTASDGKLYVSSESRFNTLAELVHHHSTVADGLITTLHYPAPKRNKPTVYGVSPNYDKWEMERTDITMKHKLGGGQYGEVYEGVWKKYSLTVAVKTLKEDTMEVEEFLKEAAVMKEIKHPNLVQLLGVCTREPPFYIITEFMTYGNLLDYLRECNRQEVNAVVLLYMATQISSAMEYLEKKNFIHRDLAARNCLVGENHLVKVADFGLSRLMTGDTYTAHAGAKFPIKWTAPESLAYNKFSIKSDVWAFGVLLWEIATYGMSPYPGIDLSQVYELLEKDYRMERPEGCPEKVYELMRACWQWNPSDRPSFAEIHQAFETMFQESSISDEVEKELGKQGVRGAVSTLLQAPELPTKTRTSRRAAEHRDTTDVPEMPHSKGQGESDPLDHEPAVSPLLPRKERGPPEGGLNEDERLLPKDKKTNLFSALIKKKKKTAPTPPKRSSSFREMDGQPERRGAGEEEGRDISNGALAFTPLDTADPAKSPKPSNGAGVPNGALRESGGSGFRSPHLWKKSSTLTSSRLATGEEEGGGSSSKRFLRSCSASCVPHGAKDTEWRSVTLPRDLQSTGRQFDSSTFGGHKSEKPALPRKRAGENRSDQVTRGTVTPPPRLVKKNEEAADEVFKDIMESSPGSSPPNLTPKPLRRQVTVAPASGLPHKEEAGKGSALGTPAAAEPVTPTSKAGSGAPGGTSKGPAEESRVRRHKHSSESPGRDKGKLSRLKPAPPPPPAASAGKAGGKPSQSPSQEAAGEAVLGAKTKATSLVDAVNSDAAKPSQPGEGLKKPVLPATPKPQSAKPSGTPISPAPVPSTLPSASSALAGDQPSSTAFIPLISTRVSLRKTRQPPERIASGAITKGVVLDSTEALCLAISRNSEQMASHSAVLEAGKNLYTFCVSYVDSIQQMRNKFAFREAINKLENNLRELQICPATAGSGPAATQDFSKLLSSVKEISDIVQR", "UniProt Q13671": "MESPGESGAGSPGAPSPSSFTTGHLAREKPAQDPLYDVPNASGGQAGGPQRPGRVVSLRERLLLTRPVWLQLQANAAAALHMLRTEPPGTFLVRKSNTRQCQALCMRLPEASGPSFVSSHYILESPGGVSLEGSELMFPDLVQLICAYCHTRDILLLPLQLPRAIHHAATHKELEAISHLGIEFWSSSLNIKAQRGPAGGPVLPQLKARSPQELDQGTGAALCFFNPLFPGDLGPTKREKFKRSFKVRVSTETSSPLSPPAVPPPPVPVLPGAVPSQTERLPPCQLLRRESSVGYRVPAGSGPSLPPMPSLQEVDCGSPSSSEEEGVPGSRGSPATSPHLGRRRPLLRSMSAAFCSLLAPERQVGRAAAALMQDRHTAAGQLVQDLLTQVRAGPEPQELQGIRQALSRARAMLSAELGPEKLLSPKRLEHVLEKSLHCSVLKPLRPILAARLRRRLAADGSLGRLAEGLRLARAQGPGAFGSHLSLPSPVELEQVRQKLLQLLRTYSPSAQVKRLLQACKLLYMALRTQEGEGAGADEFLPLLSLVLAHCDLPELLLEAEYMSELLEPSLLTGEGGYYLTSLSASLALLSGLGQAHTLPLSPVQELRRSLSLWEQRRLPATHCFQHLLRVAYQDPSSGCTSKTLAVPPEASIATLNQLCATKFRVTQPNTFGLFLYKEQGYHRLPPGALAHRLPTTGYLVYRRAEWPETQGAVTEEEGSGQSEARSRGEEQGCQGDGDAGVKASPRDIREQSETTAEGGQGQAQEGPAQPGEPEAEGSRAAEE"}, "source": "PubChem BioAssay AID588664", "about": "(The Scripps Research Institute Molecular Screening Center, 2011)", "note": "The entries are a selection whose mix differs from that of the whole data set. The source made the active and inactive calls. Cut-off read from the data, not from the text of the source: active = inhibition above about 5% (passing the limit was not always enough); inactive = the rest.", "data": [{"target": "Tyrosine-protein kinase ABL1 (Homo sapiens) + Ras and Rab interactor 1 (Homo sapiens) (UniProt P00519+Q13671)", "assay": "disruptors of human Abl and Rin1 association – biochemical, TR-FRET, primary screen (AID 588664)", "conditions": "TR-FRET Rin1/Abl binding, at 7.35 µM, hits give high values", "values": [{"smiles": "N#C/C(=C\\c1ccc(N(CCBr)CCBr)cc1)C(N)=O", "inhibition": "inactive: -3.31%"}, {"smiles": "CC(=O)c1ccc(N2CC2c2ccncc2)cc1", "note": "(stereo not given)", "inhibition": "inactive: 1.19%"}, {"smiles": "CC(C)(C)C(=O)NC(Sc1ccccc1)C(Cl)(Cl)Cl", "note": "(stereo not given)", "inhibition": "inactive: 1.21%"}, {"smiles": "CCc1cc(O)c([N+](=O)[O-])c(C)c1[N+](=O)[O-]", "inhibition": "inactive: -0.9%"}, {"smiles": "CCOc1ccc(C2=NCC(CBr)S2)cc1", "note": "(stereo not given)", "inhibition": "inactive: 1.62%"}, {"smiles": "O=P1(Nc2nc3ccc(Cl)cc3s2)COc2ccccc2O1", "note": "(stereo not given)", "inhibition": "inactive: 1.61%"}, {"smiles": "c1nnnn1CCn1cnnn1", "inhibition": "inactive: 2.06%"}, {"smiles": "CC(C)C(=O)NC(Sc1ccccc1)C(Cl)(Cl)Cl", "note": "(stereo not given)", "inhibition": "inactive: -5.67%"}, {"smiles": "O=P(Nc1nccs1)(c1ccccc1)c1ccccc1", "inhibition": "inactive: 0.37%"}, {"smiles": "O=C(OC1CN2CCC1CC2)c1cccc(Cl)c1", "note": "(stereo not given)", "inhibition": "inactive: 1.11%"}, {"smiles": "Nc1ccc([As](=O)(O)c2ccc([N+](=O)[O-])cc2)cc1", "inhibition": "inactive: -2.57%"}, {"smiles": "C(Cc1nn[nH]n1)Cc1nn[nH]n1", "inhibition": "inactive: -0.27%"}, {"smiles": "O=[As](O)(c1ccccc1)c1ccc(O)cc1", "inhibition": "inactive: 1.86%"}, {"smiles": "O=[N+]([O-])c1ccc(O)c(/C=N/Nc2ccc([N+](=O)[O-])cc2[N+](=O)[O-])c1", "inhibition": "inactive: -0.97%"}, {"smiles": "CC(=O)NC(SC(=S)N(C)C)C(Cl)(Cl)Cl", "note": "(stereo not given)", "inhibition": "inactive: -3.47%"}, {"smiles": "O=[N+]([O-])c1ncn(CCn2cnc([N+](=O)[O-])n2)n1", "inhibition": "inactive: -4.18%"}, {"smiles": "C[C@H]1OP(=O)(Oc2ccccc2)[C@H](O)[C@H](O)[C@H]1N=[N+]=[N-]", "note": "(stereo not given in full)", "inhibition": "inactive: 2.3%"}, {"smiles": "O=P(Nc1nc2ccccc2s1)(c1ccccc1)c1ccccc1", "inhibition": "inactive: -0.1%"}, {"smiles": "O=P(Nc1ccccn1)(c1ccc(Br)cc1)c1ccc(Br)cc1", "inhibition": "inactive: 0.97%"}, {"smiles": "CN(C)C1(CNC(=O)c2ccc(Cl)c(S(N)(=O)=O)c2)CCCCC1", "inhibition": "inactive: -1.37%"}, {"smiles": "Nc1ccc(CCCCOc2ccccc2)cc1", "inhibition": "inactive: 4%"}, {"smiles": "COc1ccc(N)c([N+](=O)[O-])c1[N+](=O)[O-]", "inhibition": "inactive: -8.08%"}, {"smiles": "Nc1cccc([As](=O)(O)c2ccccc2)c1", "inhibition": "inactive: -1.18%"}, {"smiles": "O=P1(Nc2ccc(Br)cn2)COc2ccccc2OC1", "inhibition": "inactive: -5.09%"}, {"smiles": "NS(=O)(=O)c1cccc(NC(=O)COC(=O)C(O)(c2ccccc2)c2ccccc2)c1", "inhibition": "inactive: 4.13%"}, {"smiles": "Cc1ccc(OCC(=O)OC2CN3CCC2CC3)cc1", "note": "(stereo not given)", "inhibition": "inactive: 0.29%"}, {"smiles": "O=[As](O)(c1cccs1)c1cccs1", "inhibition": "inactive: 0.03%"}, {"smiles": "Cc1ccc(S(=O)(=O)N(CCCN)CCCc2c(C)nc(N)[nH]c2=O)cc1", "inhibition": "inactive: 1.69%"}, {"smiles": "O=P1(Nc2ncccn2)COc2ccccc2OC1", "inhibition": "inactive: 3.05%"}, {"smiles": "CN(C)C1(CNC(=O)c2ccc(S(C)(=O)=O)cc2)CCCCC1", "inhibition": "inactive: -3.14%"}, {"smiles": "CCCC1OP(=O)(Nc2ccccc2)OCC1CC", "note": "(stereo not given)", "inhibition": "inactive: 4.46%"}, {"smiles": "O=C(/C=C/c1ccccc1)OC1CN2CCC1CC2", "note": "(stereo not given)", "inhibition": "inactive: 2.59%"}, {"smiles": "CC1CCC(C(C)C)C(OP(=O)(Nc2ccccn2)c2ccccc2)C1", "note": "(stereo not given)", "inhibition": "inactive: 0.82%"}, {"smiles": "Cc1ccc(C(=O)OC2CN3CCC2CC3)cc1", "note": "(stereo not given)", "inhibition": "inactive: 2.94%"}, {"smiles": "Cc1nn(-c2ccccc2)c2c1P(=O)(N1CCOCC1)N(C)C(c1ccccc1)=N2", "note": "(stereo not given)", "inhibition": "inactive: -0.63%"}, {"smiles": "CC(C)/C=N\\N=C(\\N)N[N+](=O)[O-]", "inhibition": "inactive: -1.63%"}, {"smiles": "CN(C(=O)Cc1ccc(Cl)c(Cl)c1)[C@@H]1CCCC[C@H]1N1CCCC1", "inhibition": "inactive: -2.14%"}, {"smiles": "CC1(CBr)Cn2c(nc3ccccc3c2=O)S1", "note": "(stereo not given)", "inhibition": "inactive: 2.49%"}, {"smiles": "COc1ccccc1CNC(=O)COC(=O)C(O)(c1ccccc1)c1ccccc1", "inhibition": "inactive: 3.39%"}, {"smiles": "CC(C)(C)C(=O)NC(Sc1ncccn1)C(Cl)(Cl)Cl", "note": "(stereo not given)", "inhibition": "inactive: -0.74%"}, {"smiles": "O=P1(N(CCCl)CCCl)NCCC(C(F)(F)F)O1", "note": "(stereo not given)", "inhibition": "inactive: 1.59%"}, {"smiles": "Clc1n[nH]nc1-c1nn[nH][15n]1", "inhibition": "inactive: -0.73%"}, {"smiles": "CCOP(=O)(NC(=NC(C)c1ccccc1)NC(C)c1ccccc1)OCC", "note": "(stereo not given)", "inhibition": "inactive: 3.69%"}, {"smiles": "O=P1(Nc2ccccn2)COc2ccccc2OC1", "inhibition": "inactive: 1.44%"}, {"smiles": "CCC1=CC2Cc3nc4ccc(Cl)cc4c(N)c3C(C1)C2", "note": "(stereo not given)", "inhibition": "inactive: -2.37%"}, {"smiles": "CN(CCCl)Cc1cc(Cl)c(NC2=NCCN2)c(Cl)c1", "inhibition": "inactive: -0.3%"}, {"smiles": "CCOP(=O)(Nc1ccc(C)cn1)OCC", "inhibition": "inactive: 0.7%"}, {"smiles": "CCOP(=O)(Nc1cccc2ccccc12)OCC", "inhibition": "inactive: -1.36%"}, {"smiles": "COc1cc(C2NCCC3(OCCO3)C2(C)C)cc(OC)c1OC", "note": "(stereo not given)", "inhibition": "inactive: 3.94%"}, {"smiles": "Cc1ccc(NCCc2c([N+](=O)[O-])cc([N+](=O)[O-])cc2[N+](=O)[O-])cc1", "inhibition": "inactive: -5.46%"}, {"smiles": "Nc1cccc2c([As](=O)(O)O)cccc12", "inhibition": "inactive: 0.55%"}, {"smiles": "CCCOP(=S)(Nc1nc(N)cc(=O)[nH]1)OCCC", "inhibition": "inactive: -1.71%"}, {"smiles": "O=[As](O)(c1cccc(O)c1)c1cccc(O)c1", "inhibition": "inactive: 1.89%"}, {"smiles": "Cc1cccc(OCC(=O)OC2CN3CCC2CC3)c1", "note": "(stereo not given)", "inhibition": "inactive: -5.48%"}, {"smiles": "O=C(OC1CN2CCC1CC2)c1ccc(Cl)cc1", "note": "(stereo not given)", "inhibition": "inactive: 3.24%"}, {"smiles": "CS(=O)(=O)c1ccc(Cl)c(NC(=O)COC(=O)C(O)(c2ccccc2)c2ccccc2)c1", "inhibition": "inactive: -0.28%"}, {"smiles": "COc1cc(C(=O)NCC2(N3CCOCC3)CCCCC2)cc(Cl)c1OC(C)C", "inhibition": "inactive: 1.86%"}, {"smiles": "O=[As](O)(O)c1cccnc1", "inhibition": "inactive: -2.97%"}, {"smiles": "CCOP1(=S)c2c(C)nn(CCC#N)c2N=C(c2ccc(F)cc2)N1C", "note": "(stereo not given)", "inhibition": "inactive: 2.31%"}, {"smiles": "CN(C(=O)Cc1ccccc1)[C@@H]1CC[C@]2(CCCO2)C[C@H]1N1CCCC1", "inhibition": "inactive: -4.16%"}, {"smiles": "N#CCCN(C(=O)COC(=O)C(O)(c1ccccc1)c1ccccc1)c1ccc(F)cc1", "inhibition": "inactive: 1.6%"}, {"smiles": "CN(C(=O)Cc1ccc(Cl)c(Cl)c1)[C@H]1CC[C@@]2(CCCO2)C[C@@H]1N1CCCC1", "inhibition": "inactive: 4.23%"}, {"smiles": "CN(C)C(=O)c1cc([N+](=O)[O-])cc2c1-c1c(cc([N+](=O)[O-])cc1[N+](=O)[O-])C2=O", "inhibition": "inactive: -6.04%"}, {"smiles": "O=[N+]([O-])c1ccc2c(c1)nnn2O", "inhibition": "inactive: 2.01%"}, {"smiles": "NC(=O)Nc1ccc([As](=O)(O)O)cc1", "inhibition": "inactive: 1.07%"}]}]}
